INS-1E GSIS act = GLuc luminescence reporter in INS-1E cells, primary screen for activators of glucose-dependent secretion of insulin | INS-1E GLuc reporter insulin secretion, 2-3 h | activation, % at 16.6 µM | hit rate 0.61% among 370,000 | AID 743287;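 active = lowest replicate activation of at least 40%, so every replicate reaches that level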;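 also: 0% = median of neutral control wells and 100% = median of IBMX positive control wells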
Yeast UUG start = yeast start codon fidelity modulation | S. cerevisiae UUG-firefly luciferase reporter, luminescence/redox ratio | activity score, % at 18.7 µM | 0.13% of 350,000 active | AID 602363;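 active means replicate mean at a twofold rise or more, about +100% in these data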;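 further: firefly luciferase made from a UUG start codon reports start codon fidelity; reporter light over untreated wells divided by growth signal over untreated wells; some hits fall short of that in this replicate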
SR-BI DiI inh = inhibitors of mouse SR-BI mediated HDL lipid uptake. Q61009. ldlA[mSR-BI] CHO cells, DiI-HDL uptake fluorescence, 3 h. inhibition, % at 12.5 µM. hit rate 0.96% among 320,000;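 active = mean replicate inhibition of at least 70% and a set share of replicates each scoring 70 or more; inconclusive = meets just one of the two criteria; inactive = fails both criteria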;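 also: 0% = median of neutral control wells and 100% = median of positive control wells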
SR-BI DiI-HDL act = enhances SR-BI lipid uptake from DiI-HDL | AID 504775 | hit rate 0.096% among 320,000 | CHO ldlA[mSR-BI] cells, DiI-HDL uptake fluorescence, 3 h; 100 = double the neutral-control signal | activation, % at 12.5 µM;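 active = mean replicate activation of at least 60% and every replicate at or above 60%; inconclusive = mean or all-replicate condition met, but not both; inactive = mean below 60% and not all replicates reaching 60%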;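 also: 0% = median plate neutral-control signal and 100% = twice that signal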
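Test system: SR-BI-overexpressing, LDLR-lacking CHO cells; Also added: labelled HDL, 10 µg/mL; Measured by: bottom-read cell fluorescence after medium removal, ex 550/em 595 nm; Timing: 3 h uptake period with compound, 37 °C; Buffer or medium: F12, 0.5% BSA, 25 mM HEPES; Doses: single compound concentration, delivered by pin transfer.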
DiI quench = quenches DiI-HDL fluorescence, an SR-BI assay artifact; AID 540326; cell-free DiI-HDL fluorescence quenching, 30 min; hit rate 20% among 470; AC50, µM (titrated, usually from 35 µM), without a hit: at the highest dose activity change, negative = quenching; shares compounds with SR-BI DiI inh;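 active = quenching, a falling signal, with AC50 below a set limit tied to the top valid dose, actives reach about 32 µM in these data; inconclusive = no clear call, values can overlap the other calls; inactive = rising signal, and the rest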
Starred values were filed as active, the others as inactive; i = inactive; ? = inconclusive; · = no result given. Only some compounds are listed: those with a hit (about 1.3% of all), similar ones and a draw of the others.

The opening 2 entries (preview)
INS-1E GSIS act,Yeast UUG start,SR-BI DiI inh,SR-BI DiI-HDL act,DiI quench,compound
8,·,·,·,·,CCN1[C@@H]2Cn3c(ccc(-c4ccccc4F)c3=O)[C@H]1[C@@H](C(=O)N1CCCCC1)[C@@H]2CO
-36,-7,105*,-105,2.7µM*,COc1ccc(-c2nc(-c3ccc4c(c3)OCO4)[nH]c2-c2ccc(OC)cc2)cc1

The listing, previewed entries included:
INS-1E GSIS act,Yeast UUG start,SR-BI DiI inh,SR-BI DiI-HDL act,DiI quench,compound
8,·,·,·,·,CCN1[C@@H]2Cn3c(ccc(-c4ccccc4F)c3=O)[C@H]1[C@@H](C(=O)N1CCCCC1)[C@@H]2CO
-36,-7,105*,-105,2.7µM*,COc1ccc(-c2nc(-c3ccc4c(c3)OCO4)[nH]c2-c2ccc(OC)cc2)cc1
22,18,·,·,·,C[C@@H]1CCCCO[C@H](CN(C)C(=O)CCC(F)(F)F)[C@@H](C)CN([C@@H](C)CO)C(=O)c2cc(NC(=O)CCCN(C)C)ccc2O1
-5,0,·,·,·,COC(=O)C[C@@H]1CC[C@H]2[C@H](COc3ccc(NS(=O)(=O)c4ccccc4F)cc3C(=O)N2C)O1
-7,·,-12,12,·,O=C(Nc1cccc(S(=O)(=O)N2CCOCC2)c1)C1CCCCN1S(=O)(=O)c1ccccc1 (stereo unspecified)
-24,2,?,-76,6%,O=C(Nc1cccc(S(=O)(=O)N2CCOCC2)c1)C1CCN(S(=O)(=O)c2ccccc2)CC1
-4,·,80*,-80,-4%,COc1ccc(N(CC(=O)NC2CCCC2)C(=O)Cn2nnc(-c3ccc(OC)c(OC)c3)n2)cc1
-12,4,28,-28,0%,CCC(C(=O)NC1CCCC1)N(C(=O)Cn1nnc(-c2ccc(OC)c(OC)c2)n1)c1cccc(O)c1 (stereo unspecified)

Following part
INS-1E GSIS act,Yeast UUG start,SR-BI DiI inh,SR-BI DiI-HDL act,DiI quench,compound
12,-1,·,·,·,COCC(=O)N(C)C[C@H]1Oc2ncc(C#CC3(O)CCCC3)cc2C(=O)N([C@H](C)CO)C[C@H]1C
-10,-9,·,·,·,CO[C@@H]1CN(C)C(=O)c2cc(NC(=O)NC(C)C)ccc2OC[C@H](C)N(C)C[C@@H]1C
-14,-4,·,·,·,C[C@@H]1CCCCO[C@H](CN(C)C(=O)Nc2ccc(C(F)(F)F)cc2)[C@@H](C)CN([C@@H](C)CO)C(=O)c2cc(NS(=O)(=O)c3cn(C)cn3)ccc2O1
-7,-4,·,·,·,C[C@H](CO)N1C[C@H](C)[C@@H](CN(C)Cc2ccc3c(c2)OCO3)Oc2ccc(NC(=O)CCC(F)(F)F)cc2CC1=O
2,·,·,·,·,CC=Cc1ccc2n(c1=O)C[C@@H]1[C@@H](CO)[C@H](C(=O)NC3CCCC3)N(Cc3ccncc3)[C@H]21 (mixture of isomers)
-42,·,12,-12,·,Clc1nc(Oc2ccccc2)nc(-c2cn(-c3ccccc3)c3ccccc23)n1
-8,·,72*,-72,4%,CCNc1nc(Cl)nc(-c2cn(-c3ccccc3)c3ccccc23)n1
-42,-12,78*,-78,26µM*,COc1ccc(-c2[nH]c(-c3ccc(F)cc3)nc2SCC(=O)NC2CCCC2)cc1

Other records follow.
INS-1E GSIS act,Yeast UUG start,SR-BI DiI inh,SR-BI DiI-HDL act,DiI quench,compound
-15,-19,43,-43,·,COc1ccc(-c2[nH]c(-c3ccccc3)nc2SCC(=O)NC2CCCC2)cc1
-14,-19,77*,-77,2.2µM*,COc1ccc2sc(-c3ccc(N(C)C)cc3)c(C#Cc3cncn3C)c2c1
1,-15,103*,-103,2.9µM*,COc1ccc2sc(-c3ccc(N(C)C)cc3)c(C#CC(C)(C)O)c2c1
27,19,46,-46,·,COc1ccc(-c2sc3ccc(OC)cc3c2C#CCCO)cc1
19,10,64,-64,·,COc1ccc2sc(-c3ccc(SC)cc3)c(C#CC(C)(C)O)c2c1
0,·,·,·,·,CCC(=O)N1CC2(C1)[C@H](c1ccccc1)[C@H](CO)N2CCC(F)(F)F
26,2,119*,-119,-3%,CC(=O)Nc1ccc(S(=O)(=O)N2CCC(C(=O)NCCC(=O)NCc3ccccc3)CC2)cc1
0,0,-23,23,·,O=C(CCNC(=O)C1CCN(S(=O)(=O)c2ccc(F)cc2)CC1)NCc1ccccc1

New compounds follow:
INS-1E GSIS act,Yeast UUG start,SR-BI DiI inh,SR-BI DiI-HDL act,DiI quench,compound
-12,·,131*,-131,0.81µM*,CC(C)=CCc1c2c(c3occ(-c4ccc(O)c(O)c4)c(=O)c3c1O)C=CC(C)(C)O2
-46,-21,?,-74,3%,COc1ccc(C(=O)N2CCN(c3ccc([N+](=O)[O-])c(NCCc4ccc(OC)c(OC)c4)c3)CC2)cc1
·,-12,·,·,·,COc1ccc(CCNc2cc(N3CCN(C(=O)c4ccccc4F)CC3)ccc2[N+](=O)[O-])cc1OC
17,19,79*,-79,-1%,CCOc1ccc(CCNC(=O)C2CC(=O)N(c3ccccc3OCC)C2)cc1OCC (stereo unspecified)
-12,·,·,·,·,CCCNC(=O)Nc1ccc2c(c1)C(=O)N(C)C[C@@H](OC)[C@H](C)CN(CC1CCCC1)[C@@H](C)CO2
-21,·,101*,-101,2%,CC(C)c1ccc(NC(=O)c2sccc2-n2cccc2)cc1
·,-23,74*,-74,-1%,COC(=O)[C@]1(CC(C)C)N[C@H](c2ccc(-c3cccc(Cl)c3)cc2)[C@@H]2C(=O)N(C)C(=O)[C@@H]21
-8,-8,·,·,·,C[C@H](CO)N1C[C@H](C)[C@@H](CN(C)Cc2ccc(C(F)(F)F)cc2)Oc2c(NS(C)(=O)=O)cccc2C1=O

Looked up above.
`C[C@@H]1CCCCO[C@H](CN(C)C(=O)Nc2ccc(C(F)(F)F)cc2)[C@@H](C)CN([C@@H](C)CO)C(=O)c2cc(NS(=O)(=O)c3cn(C)cn3)ccc2O1` | Yeast UUG start = -4
`COc1ccc(-c2[nH]c(-c3ccccc3)nc2SCC(=O)NC2CCCC2)cc1` | SR-BI DiI inh = 43
`CC=Cc1ccc2n(c1=O)C[C@@H]1[C@@H](CO)[C@H](C(=O)NC3CCCC3)N(Cc3ccncc3)[C@H]21` (mixture of isomers) | INS-1E GSIS act = 2
`CC(C)=CCc1c2c(c3occ(-c4ccc(O)c(O)c4)c(=O)c3c1O)C=CC(C)(C)O2` | SR-BI DiI inh = 131*
`O=C(Nc1cccc(S(=O)(=O)N2CCOCC2)c1)C1CCCCN1S(=O)(=O)c1ccccc1` (stereo unspecified) | INS-1E GSIS act = -7

The list continues:
INS-1E GSIS act,Yeast UUG start,SR-BI DiI inh,SR-BI DiI-HDL act,DiI quench,compound
17,·,51,-51,·,COc1ccc(N2C(=O)C3C4C=CC(c5ccccc5)(C3C2=O)C2C(=O)N(c3ccc(OC)cc3)C(=O)C42)cc1 (stereo unspecified)
-31,·,22,-22,0%,COc1ccc(N2C(=O)C3C(C2=O)C3(c2ccccc2)c2ccccc2)cc1 (stereo unspecified)
·,-14,112*,-112,-15%,COc1cc(C(=S)N2CCCC2)ccc1OC(=O)c1ccc(Cl)cc1[N+](=O)[O-]
18,-12,24,-24,·,COc1cc(C(=S)N2CCOCC2)ccc1OC(=O)c1ccccc1[N+](=O)[O-]
·,-10,128*,-128,1µM*,O=C(NNC(=O)c1cc(Br)ccc1O)c1csc(N2CCOCC2)n1
-7,-14,·,·,·,C[C@H](CO)N1C[C@H](C)[C@H](CN(C)C(=O)Cc2ccccc2)Oc2ncc(C#Cc3ccccc3F)cc2C1=O
-5,-22,74*,-74,31µM*,CCOc1ccc2c(c1)-c1c(ssc1=S)C(C)(C)N2C(=O)c1ccco1
·,-19,24,-24,·,COc1ccc2c(c1)-c1c(ssc1=S)C(C)(C)N2C(=O)CSC1=NCCS1

The listing continues.
INS-1E GSIS act,Yeast UUG start,SR-BI DiI inh,SR-BI DiI-HDL act,DiI quench,compound
4,·,·,·,·,O=C(C[C@H]1C[C@H]2c3cc(NC(=O)NC4CCCC4)ccc3O[C@H]2[C@@H](CO)O1)NCc1cccc(F)c1
·,-17,76*,-76,-2%,Cc1cccc(NC(=O)N2C3CCCC2CC(NC(=O)C(C)(C)C)C3)c1 (stereo unspecified)
9,1,72*,-72,-12%,Cc1nc2c(cnn2-c2ccccc2Cl)c(=O)n1-c1ccc(N2CCC(C)CC2)cc1
-7,-17,14,-14,i,Cc1c(C(=O)N2CC3(CC(c4cccc(NC(=O)CC(c5ccccc5)c5ccccc5)c4)=NO3)C[C@@H]2C(N)=O)cc([N+](=O)[O-])cc1[N+](=O)[O-] (stereo partly specified)

Compound activity (PubChem BioAssay)
